In PubChem BioAssay (NCI):
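Each compound was tested at five concentrations against cells in 96-well plates for 48 hours. GI50 marks 50% less growth. TGI marks complete inhibition of growth.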

Assays:
Test in all cases: growth of human tumour cells (NCI), 48 h
[1] = tested on: SK-MEL-5 melanoma
[2] = tested on: CCRF-CEM leukemia
[3] = tested on: MCF7 breast
[4] = tested on: OVCAR-5 ovarian
[5] = tested on: OVCAR-3 ovarian
[6] = tested on: SK-MEL-2 melanoma
[7] = tested on: U251 CNS
[8] = tested on: HOP-92 NSCLC
[9] = tested on: SF-268 CNS
[10] = tested on: RPMI-8226 leukemia
[11] = tested on: SNB-19 CNS
[12] = tested on: UO-31 renal
[13] = tested on: 786-0 renal
[14] = tested on: BT-549 breast
[15] = tested on: SF-539 CNS
[16] = tested on: RXF 393 renal
[17] = tested on: SW-620 colon
[18] = tested on: MALME-3M melanoma
[19] = tested on: UACC-257 melanoma
[20] = tested on: NCI-H322M lung
[21] = tested on: SN12C renal
[22] = tested on: M14 melanoma
[23] = tested on: NCI-H522 lung
[24] = tested on: MOLT-4 leukemia
[25] = tested on: HCC-2998 colon
[26] = tested on: IGROV1 ovarian
[27] = tested on: TK-10 renal
[28] = tested on: SNB-75 CNS
[29] = tested on: HCT-15 colon
[30] = tested on: MDA-MB-435
[31] = tested on: PC-3 prostate
[32] = tested on: OVCAR-8 ovarian
[33] = tested on: DU-145 prostate
[34] = tested on: HS 578T breast
[35] = tested on: NCI-H23 lung
[36] = tested on: ACHN renal
[37] = tested on: UACC-62 melanoma
[38] = tested on: A549 NSCLC
[39] = tested on: CAKI-1 renal
[40] = tested on: EKVX NSCLC
[41] = tested on: SF-295 CNS
[42] = tested on: MDA-N
[43] = tested on: NCI-H460 lung
[44] = tested on: SK-OV-3 ovarian
[45] = tested on: K-562 leukemia
[46] = tested on: MDA-MB-231 breast
[47] = tested on: KM12 colon
[48] = tested on: HOP-62 NSCLC
[49] = tested on: SK-MEL-28 melanoma
[50] = tested on: OVCAR-4 ovarian
[51] = tested on: LOX IMVI melanoma
[52] = tested on: HL-60(TB) leukemia
[53] = tested on: HT29 colon
[54] = tested on: A498 renal
[55] = tested on: NCI/ADR-RES ovarian
[56] = tested on: T-47D breast
[57] = tested on: COLO 205 colon
[58] = tested on: NCI-H226 lung
[59] = tested on: HCT-116 colon

In the case of `NC(=O)Nc1cc([As](=O)(O)O)cc(I)c1O`, the GI50 [1] is reported as > 100 µM, the TGI [1] is reported as > 100 µM and the GI50 [2] is reported as > 100 µM. For the same compound, the TGI [2] was > 100 µM, the GI50 [3] was > 100 µM and the TGI [3] was > 100 µM. The GI50 [4] was > 100 µM, the TGI [4] was > 100 µM and the GI50 [5] was > 100 µM. For the same compound, the TGI [5] was > 100 µM, the GI50 [6] was > 100 µM and the TGI [6] was > 100 µM. The GI50 [7] was > 100 µM, the TGI [7] was > 100 µM and the GI50 [8] was > 100 µM. For the same compound, the TGI [8] was > 100 µM, the GI50 [9] was > 100 µM and the TGI [9] was > 100 µM. The GI50 [10] was > 100 µM, the TGI [10] was > 100 µM and the GI50 [11] was > 100 µM. The TGI [11] was > 100 µM, the GI50 [12] was > 100 µM and the TGI [12] was > 100 µM. The GI50 [13] was > 100 µM, the TGI [13] was > 100 µM and the GI50 [14] was > 100 µM. The TGI [14] was > 100 µM, the GI50 [15] was > 100 µM and the TGI [15] was > 100 µM. The GI50 [16] was > 100 µM, the TGI [16] was > 100 µM and the GI50 [17] was > 100 µM. The TGI [17] was > 100 µM, the GI50 [18] was > 100 µM and the TGI [18] was > 100 µM. For the same compound, the GI50 [19] was > 100 µM, the TGI [19] was > 100 µM and the GI50 [20] was > 100 µM. The TGI [20] was > 100 µM, the GI50 [21] was > 100 µM and the TGI [21] was > 100 µM. For the same compound, the GI50 [22] was > 100 µM, the TGI [22] was > 100 µM and the GI50 [23] was > 100 µM. The TGI [23] was > 100 µM, the GI50 [24] was > 100 µM and the TGI [24] was > 100 µM. The GI50 [25] was > 100 µM, the TGI [25] was > 100 µM and the GI50 [26] was > 100 µM. For the same compound, the TGI [26] was > 100 µM, the GI50 [27] was > 100 µM and the TGI [27] was > 100 µM. For the same compound, the GI50 [28] was > 100 µM, the TGI [28] was > 100 µM and the GI50 [29] was > 100 µM. The TGI [29] was > 100 µM, the GI50 [30] was > 100 µM and the TGI [30] was > 100 µM. For the same compound, the GI50 [31] was > 100 µM, the TGI [31] was > 100 µM and the GI50 [32] was > 100 µM. The TGI [32] was > 100 µM, the GI50 [33] was > 100 µM and the TGI [33] was > 100 µM. The GI50 [34] was > 100 µM, the TGI [34] was > 100 µM and the GI50 [35] was > 100 µM. For the same compound, the TGI [35] was > 100 µM, the GI50 [36] was > 100 µM and the TGI [36] was > 100 µM. For the same compound, the GI50 [37] was > 100 µM, the TGI [37] was > 100 µM and the GI50 [38] was > 100 µM. The TGI [38] was > 100 µM, the GI50 [39] was > 100 µM and the TGI [39] was > 100 µM. The GI50 [40] was > 100 µM, the TGI [40] was > 100 µM and the GI50 [41] was > 100 µM. For the same compound, the TGI [41] was > 100 µM, the GI50 [42] was > 100 µM and the TGI [42] was > 100 µM. For the same compound, the GI50 [43] was > 100 µM, the TGI [43] was > 100 µM and the GI50 [44] was > 100 µM. For the same compound, the TGI [44] was > 100 µM, the GI50 [45] was > 100 µM and the TGI [45] was > 100 µM. For the same compound, the GI50 [46] was > 100 µM, the TGI [46] was > 100 µM and the GI50 [47] was > 100 µM. The TGI [47] was > 100 µM, the GI50 [48] was > 100 µM and the TGI [48] was > 100 µM. For the same compound, the GI50 [49] was > 100 µM, the TGI [49] was > 100 µM and the GI50 [50] was > 100 µM. For the same compound, the TGI [50] was > 100 µM, the GI50 [51] was > 100 µM and the TGI [51] was > 100 µM. For the same compound, the GI50 [52] was > 100 µM, the TGI [52] was > 100 µM and the GI50 [53] was > 100 µM. The TGI [53] was > 100 µM, the GI50 [54] was > 100 µM and the TGI [54] was > 100 µM. For the same compound, the GI50 [55] was > 100 µM, the TGI [55] was > 100 µM and the GI50 [56] was > 100 µM. The TGI [56] was > 100 µM, the GI50 [57] was > 100 µM and the TGI [57] was > 100 µM. For the same compound, the GI50 [58] was > 100 µM, the TGI [58] was > 100 µM and the GI50 [59] was > 100 µM. For the same compound, the TGI [59] was > 100 µM.
